Reference: patent EP4653424A1, “PYRIDAZINONE PARP INHIBITOR, AND PREPARATION METHOD THEREFOR, AND PHARMACEUTICAL COMPOSITION AND USE THEREOF” (China Pharmaceutical University, priority 2023, dated 2024)

The chains behind the UniProt entries cited, without tags or fusion partners.
UniProt Q7Z3E1, whole entry: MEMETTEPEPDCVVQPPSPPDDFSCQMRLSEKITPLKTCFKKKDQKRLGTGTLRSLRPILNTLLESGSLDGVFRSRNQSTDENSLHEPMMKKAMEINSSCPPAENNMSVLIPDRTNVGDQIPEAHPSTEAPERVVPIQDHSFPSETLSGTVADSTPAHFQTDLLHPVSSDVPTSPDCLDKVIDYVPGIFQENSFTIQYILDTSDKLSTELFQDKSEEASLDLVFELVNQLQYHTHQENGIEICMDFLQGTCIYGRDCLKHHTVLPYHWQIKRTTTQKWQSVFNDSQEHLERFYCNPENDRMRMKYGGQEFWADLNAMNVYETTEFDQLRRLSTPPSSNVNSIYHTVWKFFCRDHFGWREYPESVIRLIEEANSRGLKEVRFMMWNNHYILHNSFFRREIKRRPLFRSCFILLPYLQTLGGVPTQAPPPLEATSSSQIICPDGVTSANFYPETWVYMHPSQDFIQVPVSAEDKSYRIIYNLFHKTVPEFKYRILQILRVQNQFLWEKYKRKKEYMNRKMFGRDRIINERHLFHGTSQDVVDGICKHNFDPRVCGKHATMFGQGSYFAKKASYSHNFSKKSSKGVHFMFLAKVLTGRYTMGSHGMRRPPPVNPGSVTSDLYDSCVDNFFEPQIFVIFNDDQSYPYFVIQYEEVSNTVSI

Tests used:
PARP7 enzyme = PARP7 enzyme (Homo sapiens, UniProt Q7Z3E1); assay: PARP7 Chemiluminescent Assay Kit enzyme inhibition assay; type: biochemical; conditions: for Inhibition at 100 nM: compound at 100 nM
Experimental: Example 60: Inhibitory activity of compounds against PARP7 enzyme
Materials: PARP7 Chemiluminescent Assay Kit, BPS Bioscience; DMSO, Sinopharm, Nivo, PerkinElmer.
Preparation of 10× PBS: 720 mg of KH2PO4, 45 g of NaCl, and 5.311 g of Na2HPO4·12H2O were dissolved in 500 mL of deionized water. The system was adjusted to pH 7.4, sterilized at 121 °C for 30 min, and cooled, and then preserved at 4 °C for later use.
Preparation of 1 × PBS: 10× PBS was diluted 10-fold with deionized water, i.e., 1 part of 10× PBS was diluted with 9 parts of deionized water.
Preparation of wash buffer: 1 × PBS containing 0.05% Tween-20.
Preparation of 1 × PARP buffer: (prepared right before use) 10× PARP buffer was diluted 10-fold with deionized water and placed on ice for later use.
According to the study requirements, the test compound was diluted to the desired concentration with 100% DMSO, and then diluted 10-fold with 1× PARP buffer to give a 10× compound working solution.
• a. 5× histone mixture was thawed on ice the day before the study; • b. 1× histone mixture was prepared by diluting 5× histone mixture into 1× histone mixture with 1× PBS; 25 µL of 1× histone mixture was added to each well of the test plate and incubated overnight at 4 °C; • c. 100 µL of the blocking buffer was taken per well and added to the test plate, and the plate was incubated at 25 °C for 90 min; • d. After the incubation was completed, the liquid in the test plate was discarded, and the plate was washed 3 times; • e. 2.5 µL of compound working solution was taken from each well and added to the test plate according to the experimental layout; a corresponding volume of 1× PARP buffer containing 10% DMSO was added to the positive control wells (Positive control), and a corresponding volume of 1× PARP buffer was added to the blank control wells (Blank); • f. After the enzyme was completely dissolved, the enzyme stock solution was diluted to 6 ng/µL with 1× PARP buffer; • g. The enzyme solution was added to a test well plate at 10 µL/well, and a corresponding volume of 1× PARP buffer was added to the blank control wells, where the enzyme amount was 60 ng/well. Note: this procedure should be performed on ice; • h. Master mixture (12.5 µL of master mixture containing 1.25 µL of 10× PARP buffer, 1.25 µL of Opti-PARP 10× Assay mixture, and 10 µL of water) was added to the test plate at 12.5 µL/well; the test plate was sealed with a film and incubated at 25 °C for 60 min; • i. After the incubation, the liquid in the test plate was discarded, and the plate was washed 3 times; • j. Streptavidin-HRP in the kit was 50-fold diluted with the Blocking buffer, and added to the test plate at 25 µL/well, and the plate was incubated at 25 °C for 30 min; • k. After the incubation, the liquid in the test plate was discarded, and the plate was washed 3 times; • l. ELISA ECL Substrate A and ELISA ECL Substrate B in the kit were mixed in a ratio of 1:1, the mixed solution was added to the test plate at 50 µL/well, luminescence detection was immediately performed using Nivo, and the luminescence value (RLU) was read; • m. Calculation of enzyme inhibition: % Enzyme Activity = (RLU(Sample)−RLU(Blank))/(RLU(Pos.Ctrl)−RLU(Blank)) × 100%; [formula] Enzyme inhibition = 1 - % Enzyme Activity; the IC 50 was calculated using GraphPad Prism 8.

Caco-2 cell = assay: Caco-2 bidirectional (ABBA) permeability assay; type: in vitro ADME
Experimental: Materials: test compounds I-A-1, I-A-2, and RBN-2397.
• (1) Caco-2 cell plating • 1. 600 µL of cell culture medium and 100 µL of cell culture medium were added to the wells of […], respectively; • 2. Before cell inoculation, Transwell was pre-incubated at 37 °C and 5% CO2 for 1 h; • 3. 100 µL of cell suspension (4 × 10^5 cells/mL) was seeded into the culture medium and cultured at 37 °C, 5% CO2, and 95% relative humidity for 14-21 days; • 4. The cell culture medium was replaced once every other day in the first 7 days, and once every day after day 7; • 5. The transepithelial electrical resistance (TEER) of the monolayer membrane was measured using EVOM3. • (2) ABBA process • 1. The plate was washed twice with pre-heated HBSS (10 mM HEPES, pH 7.4) and then incubated at 37 °C for 30 min. • 2. Test compounds were prepared in 1 mM DMSO and diluted 200-fold to 5 µM with HBSS (10 mM HEPES, pH 7.4) and HBSS (100 µM Lucifer Yellow, 10 mM HEPES, pH 7.4). • 3. Apical to basal direction: 200 µL of 5 µM working solution (100 µM Lucifer Yellow) was added to the apical compartment, and 600 µL of HBSS (10 mM HEPES, pH 7.4) was added to the basal compartment. • 4. Basal to apical direction: 600 µL of 5 µM working solution was added to the basal compartment, and 200 µL of HBSS (100 µM Lucifer Yellow, 10 mM HEPES, pH 7.4) was added to the apical compartment. • 5. 100 µL of 5 µM working solution was transferred to a sample plate containing 400 µL of cold methanol, and IS* was C0. • 6. The cell plate was incubated at 37 °C, 5% CO2, and 95% relative humidity for 2 h. • 7. 5 µL of the working solution was transferred from the apical compartment and the basal compartment to the plate. After 0.5 h of incubation, the 427 nm excitation values and 536 nm emission values were read by the Lucifer Yellow leakage detector. • 8. After 2 h of incubation, 100 µL of the solution was transferred from the apical and basal compartments with IS* to a sample plate containing 400 µL of cold methanol. • 9. The sample plate was centrifuged at 3220 g for 40 min. • 10. 100 µL of the supernatant was transferred to an assay plate containing an appropriate volume of water for LC-MS/MS analysis. • (3) Calculation
The apparent permeability coefficient (Papp, cm/s) and the efflux ratio were calculated using Microsoft Excel. Papp = (VA × Cacceptor × 100)/(Area × Time × Cinitial,donor) [formula] Efflux Ratio = (Papp(B−A))/(Papp(A−B)) [formula] Table 3. Physicochemical properties of test compounds

O=C(CCNc1cn[nH]c(=O)c1C(F)(F)F)c1ccc(F)cc1
IC50 (PARP7 enzyme): < 0.1 µM | Inhibition at 100 nM (PARP7 enzyme): +++ (inhibition at 100 nM ≥ 50%)

O=C(CCNc1cn[nH]c(=O)c1C(F)(F)F)c1ccc(OCC2CCCC2)cc1
IC50 (PARP7 enzyme): < 0.1 µM | Inhibition at 100 nM (PARP7 enzyme): +++ (inhibition at 100 nM ≥ 50%)

O=c1[nH]ncc(NCC#Cc2ncccn2)c1C(F)(F)F
IC50 (PARP7 enzyme): 0.1 to 0.5 µM | Inhibition at 100 nM (PARP7 enzyme): ++ (50% > inhibition at 100 nM ≥ 25%)

O=c1[nH]ncc(NCC#Cc2ccccc2)c1C(F)(F)F
efflux ratio (Caco-2 cell; Caco-2, summary in words): lower efflux ratio | membrane permeability (Caco-2 cell; Caco-2, summary in words): better membrane permeability | efflux ratio (Caco-2 cell; Papp(B-A)/Papp(A-B), Caco-2, 5 µM): 0.64 | PappA→B (1E-6 cm/s) (Caco-2 cell; apical to basal, 5 µM, 2 h, Caco-2): 39.27 1E-6 cm/s | PappB→A (1E-6 cm/s) (Caco-2 cell; basal to apical, 5 µM, 2 h, Caco-2): 25.16 1E-6 cm/s | IC50 (PARP7 enzyme): < 0.1 µM | Inhibition at 100 nM (PARP7 enzyme): +++ (inhibition at 100 nM ≥ 50%)

O=c1[nH]ncc(N2CC(C(O)c3cccc(F)c3)C2)c1C(F)(F)F (stereo not shown)
IC50 (PARP7 enzyme): < 0.1 µM | Inhibition at 100 nM (PARP7 enzyme): +++ (inhibition at 100 nM ≥ 50%)

O=c1[nH]ncc(N2CC(Nc3ccccc3)C2)c1C(F)(F)F
IC50 (PARP7 enzyme): < 0.1 µM | Inhibition at 100 nM (PARP7 enzyme): +++ (inhibition at 100 nM ≥ 50%)

O=c1[nH]ncc(N2CC(C(O)c3ccc(F)cc3)C2)c1C(F)(F)F (stereo not shown)
IC50 (PARP7 enzyme): < 0.1 µM | Inhibition at 100 nM (PARP7 enzyme): +++ (inhibition at 100 nM ≥ 50%)

Cc1ccc(C(=O)CCNc2cn[nH]c(=O)c2C(F)(F)F)cc1
IC50 (PARP7 enzyme): < 0.1 µM | Inhibition at 100 nM (PARP7 enzyme): +++ (inhibition at 100 nM ≥ 50%)

O=c1[nH]ncc(NCCOc2ccccc2)c1C(F)(F)F
IC50 (PARP7 enzyme): < 0.1 µM | Inhibition at 100 nM (PARP7 enzyme): +++ (inhibition at 100 nM ≥ 50%)

COc1ccc(C(=O)C2CN(c3cn[nH]c(=O)c3C(F)(F)F)C2)cc1
IC50 (PARP7 enzyme): < 0.1 µM | Inhibition at 100 nM (PARP7 enzyme): +++ (inhibition at 100 nM ≥ 50%)

O=C(CCNc1cn[nH]c(=O)c1C(F)(F)F)c1csc2ccccc12
IC50 (PARP7 enzyme): < 0.1 µM | Inhibition at 100 nM (PARP7 enzyme): +++ (inhibition at 100 nM ≥ 50%)

O=c1[nH]ncc(NCC#Cc2ccc(F)cc2)c1C(F)(F)F
IC50 (PARP7 enzyme): 0.1 to 0.5 µM | Inhibition at 100 nM (PARP7 enzyme): ++ (50% > inhibition at 100 nM ≥ 25%)

O=C(c1ccccc1)C1CN(c2cn[nH]c(=O)c2C(F)(F)F)C1
IC50 (PARP7 enzyme): < 0.1 µM | Inhibition at 100 nM (PARP7 enzyme): +++ (inhibition at 100 nM ≥ 50%)

O=C(c1ccc(F)cc1)C1CN(c2cn[nH]c(=O)c2C(F)(F)F)C1
IC50 (PARP7 enzyme): < 0.1 µM | Inhibition at 100 nM (PARP7 enzyme): +++ (inhibition at 100 nM ≥ 50%)

Cc1ccc(C(=O)C2CN(c3cn[nH]c(=O)c3C(F)(F)F)C2)cc1
IC50 (PARP7 enzyme): < 0.1 µM | Inhibition at 100 nM (PARP7 enzyme): +++ (inhibition at 100 nM ≥ 50%)

O=c1[nH]ncc(NCC#Cc2cccc(F)c2)c1C(F)(F)F
IC50 (PARP7 enzyme): 0.1 to 0.5 µM | Inhibition at 100 nM (PARP7 enzyme): ++ (50% > inhibition at 100 nM ≥ 25%)

Cc1ccc(C#CCNc2cn[nH]c(=O)c2C(F)(F)F)cc1
IC50 (PARP7 enzyme): 0.1 to 0.5 µM | Inhibition at 100 nM (PARP7 enzyme): +++ (inhibition at 100 nM ≥ 50%)

O=C(c1ccccc1)C1CCN(c2cn[nH]c(=O)c2C(F)(F)F)C1 (stereo not shown)
IC50 (PARP7 enzyme): < 0.1 µM | Inhibition at 100 nM (PARP7 enzyme): +++ (inhibition at 100 nM ≥ 50%)

O=C(CCNc1cn[nH]c(=O)c1C(F)(F)F)c1ccc(OCC2CCCCC2)cc1
IC50 (PARP7 enzyme): < 0.1 µM | Inhibition at 100 nM (PARP7 enzyme): +++ (inhibition at 100 nM ≥ 50%)

O=c1[nH]ncc(N2CC(C(O)c3ccccc3)C2)c1C(F)(F)F (stereo not shown)
IC50 (PARP7 enzyme): < 0.1 µM | Inhibition at 100 nM (PARP7 enzyme): +++ (inhibition at 100 nM ≥ 50%)

CCOc1ccc(C(=O)CCNc2cn[nH]c(=O)c2C(F)(F)F)cc1
IC50 (PARP7 enzyme): < 0.1 µM | Inhibition at 100 nM (PARP7 enzyme): +++ (inhibition at 100 nM ≥ 50%)

O=c1[nH]ncc(NCC#Cc2cc(F)cc(F)c2)c1C(F)(F)F
IC50 (PARP7 enzyme): 0.1 to 0.5 µM | Inhibition at 100 nM (PARP7 enzyme): ++ (50% > inhibition at 100 nM ≥ 25%)

O=c1[nH]ncc(NCC#Cc2ccc3ncccc3c2)c1C(F)(F)F
IC50 (PARP7 enzyme): < 0.1 µM | Inhibition at 100 nM (PARP7 enzyme): +++ (inhibition at 100 nM ≥ 50%)

O=c1[nH]ncc(NCCCc2ccccc2)c1C(F)(F)F
IC50 (PARP7 enzyme): 0.1 to 0.5 µM | Inhibition at 100 nM (PARP7 enzyme): ++ (50% > inhibition at 100 nM ≥ 25%)

O=C(c1cccc(F)c1)C1CN(c2cn[nH]c(=O)c2C(F)(F)F)C1
IC50 (PARP7 enzyme): < 0.1 µM | Inhibition at 100 nM (PARP7 enzyme): +++ (inhibition at 100 nM ≥ 50%)
